These results are taken from paper PMC9525273.

Assay [1] deals with T1, TgATP4^WT (membranes from T. gondii tachyzoites) (Toxoplasma gondii, UniProt B9QMJ0).
T1 sequence (B9QMJ0 1-1338): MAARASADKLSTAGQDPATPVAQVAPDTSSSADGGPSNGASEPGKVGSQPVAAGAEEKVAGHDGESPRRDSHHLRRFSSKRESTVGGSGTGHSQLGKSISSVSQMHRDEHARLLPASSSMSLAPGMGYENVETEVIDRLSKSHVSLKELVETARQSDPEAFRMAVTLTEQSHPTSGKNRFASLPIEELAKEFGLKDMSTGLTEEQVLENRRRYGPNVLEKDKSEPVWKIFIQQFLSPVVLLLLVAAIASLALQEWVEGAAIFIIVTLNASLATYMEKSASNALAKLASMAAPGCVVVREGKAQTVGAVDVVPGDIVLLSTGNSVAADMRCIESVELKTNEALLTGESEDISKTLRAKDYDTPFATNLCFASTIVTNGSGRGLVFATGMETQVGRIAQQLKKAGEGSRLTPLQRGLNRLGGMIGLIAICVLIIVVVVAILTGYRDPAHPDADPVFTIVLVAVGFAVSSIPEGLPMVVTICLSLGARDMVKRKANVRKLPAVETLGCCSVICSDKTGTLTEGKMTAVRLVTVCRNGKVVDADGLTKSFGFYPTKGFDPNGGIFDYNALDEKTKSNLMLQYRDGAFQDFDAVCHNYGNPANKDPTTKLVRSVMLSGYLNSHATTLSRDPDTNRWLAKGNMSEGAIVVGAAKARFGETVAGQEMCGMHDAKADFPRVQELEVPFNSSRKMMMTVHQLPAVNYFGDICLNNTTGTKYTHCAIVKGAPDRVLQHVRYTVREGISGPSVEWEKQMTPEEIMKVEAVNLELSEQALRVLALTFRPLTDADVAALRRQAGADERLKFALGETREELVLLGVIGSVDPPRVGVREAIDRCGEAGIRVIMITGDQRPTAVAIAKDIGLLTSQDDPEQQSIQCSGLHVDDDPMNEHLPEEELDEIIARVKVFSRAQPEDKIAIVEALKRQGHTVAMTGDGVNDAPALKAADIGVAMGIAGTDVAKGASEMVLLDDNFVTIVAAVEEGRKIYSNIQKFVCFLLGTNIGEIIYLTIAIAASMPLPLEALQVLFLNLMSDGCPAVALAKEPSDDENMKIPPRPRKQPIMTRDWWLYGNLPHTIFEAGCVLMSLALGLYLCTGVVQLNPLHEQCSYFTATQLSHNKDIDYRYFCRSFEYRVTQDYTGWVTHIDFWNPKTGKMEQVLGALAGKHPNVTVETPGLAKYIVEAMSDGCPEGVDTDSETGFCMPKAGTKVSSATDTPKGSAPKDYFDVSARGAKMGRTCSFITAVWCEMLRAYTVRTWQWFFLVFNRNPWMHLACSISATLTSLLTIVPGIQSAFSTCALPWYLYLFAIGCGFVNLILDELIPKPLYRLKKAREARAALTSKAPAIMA
In words: Membrane ATPase assay, ATP4-associated (Na+-dependent) ATPase activity. Type of assay: biochemical. The settings on record: TgATP4WT vs PfATP4WT; 10 min. How it is done:
(§1) Membranes from isolated P. falciparum or extracellular T. gondii parasites were prepared by lysing parasites in ice-cold deionized water containing a 1:500 dilution of Protease Inhibitor Cocktail Set III (Merck Millipore), then washing the membrane preparation three times in ice-cold deionized water (with protease inhibitors present for the first two washes)[15]. Protein concentrations in the membrane preparations were measured using a Bradford assay. The PiColorLock Gold Phosphate Detection System (Innova Biosciences) was used to measure the production of Pi from hydrolysis of ATP[15]. Membrane preparations were diluted in either a high Na^+ solution (yielding final conditions in the reactions of 150 mM NaCl, 20 mM KCl, 2 mM MgCl2, 50 mM Tris, pH 7.2) or a Na^+-free solution (yielding final conditions of 150 mM choline chloride, 20 mM KCl, 2 mM MgCl2, 50 mM Tris, pH 7.2) to achieve a total protein concentration of 50 μg/mL. Cipargamin, (+)-SJ733, or DMSO (solvent control) were added to give the concentrations stated in the relevant Figure legends. The reactions were performed at 37 °C, and were initiated by the addition of 1 mM ATP (Na2ATP۰3H2O; MP Biomedicals) and terminated 10 min later by adding 100 μL of reaction mixture (in duplicate) to 25 μL “Gold mix” in a 96-well plate. “Stabiliser” was added 3 min later, and the plates incubated at room temperature in the dark for 60 min before measuring absorbance at 635 nm. Background values (averaged from wells containing all components, but to which ATP was not added until after the membrane was exposed to Gold mix) were subtracted from the data. For each treatment, the ATPase activity associated with the (Na^+-dependent) PfATP4 and TgATP4 proteins was calculated by subtracting data obtained in the low Na^+ condition (containing only the 2 mM Na^+ introduced on addition of 1 mM Na2ATP) from that obtained in the high Na^+ condition.

The next assay relates to NF54^CTL parasites. Nature of the assay: P. falciparum proliferation assay (72 h, flow cytometry, SYBR Green I/MitoTracker). The settings on record: Plasmodium falciparum, NF54, NF54CTL parasites; individual experiments. The format is cell-based. How it is done: For the NF54-based lines and Dd2-B2-PfATP4^G358S and its parent, assays were initiated with cultures containing predominantly ring-stage parasites with a parasitaemia of 0.3% and a haematocrit of 1%. All assays using NF54 were performed in culture media containing 10% O + human serum. The duration of the assays was 72 h and the concentration of DMSO was <0.5% (v/v). Serial dilutions of the test compounds were performed using a Tecan D300e digital dispenser, with parasite cultures added manually. Parasite survival was assessed by flow cytometry on an Intellicyt iQue3 (Essen Bioscience), with 1× SYBR Green I (Invitrogen) and 200 nM MitoTracker Deep Red FM (Invitrogen) used to stain the nucleus and the mitochondria in live parasites, respectively. The gating strategy used to quantify parasite survival, performed using FlowJo version 10 (FlowJo LLC.), is illustrated in Supplementary Fig. 9. IC50 and IC90 values were calculated by linear interpolation of the dose-response data.
Background: In flow cytometry, cells or beads pass a laser one at a time.

The target in assay [2] is T2, PfATP4^WT (membranes from Dd2-Polδ parasites) (Plasmodium falciparum, UniProt A0A143ZZK9).
T2 sequence (A0A143ZZK9 1-1264): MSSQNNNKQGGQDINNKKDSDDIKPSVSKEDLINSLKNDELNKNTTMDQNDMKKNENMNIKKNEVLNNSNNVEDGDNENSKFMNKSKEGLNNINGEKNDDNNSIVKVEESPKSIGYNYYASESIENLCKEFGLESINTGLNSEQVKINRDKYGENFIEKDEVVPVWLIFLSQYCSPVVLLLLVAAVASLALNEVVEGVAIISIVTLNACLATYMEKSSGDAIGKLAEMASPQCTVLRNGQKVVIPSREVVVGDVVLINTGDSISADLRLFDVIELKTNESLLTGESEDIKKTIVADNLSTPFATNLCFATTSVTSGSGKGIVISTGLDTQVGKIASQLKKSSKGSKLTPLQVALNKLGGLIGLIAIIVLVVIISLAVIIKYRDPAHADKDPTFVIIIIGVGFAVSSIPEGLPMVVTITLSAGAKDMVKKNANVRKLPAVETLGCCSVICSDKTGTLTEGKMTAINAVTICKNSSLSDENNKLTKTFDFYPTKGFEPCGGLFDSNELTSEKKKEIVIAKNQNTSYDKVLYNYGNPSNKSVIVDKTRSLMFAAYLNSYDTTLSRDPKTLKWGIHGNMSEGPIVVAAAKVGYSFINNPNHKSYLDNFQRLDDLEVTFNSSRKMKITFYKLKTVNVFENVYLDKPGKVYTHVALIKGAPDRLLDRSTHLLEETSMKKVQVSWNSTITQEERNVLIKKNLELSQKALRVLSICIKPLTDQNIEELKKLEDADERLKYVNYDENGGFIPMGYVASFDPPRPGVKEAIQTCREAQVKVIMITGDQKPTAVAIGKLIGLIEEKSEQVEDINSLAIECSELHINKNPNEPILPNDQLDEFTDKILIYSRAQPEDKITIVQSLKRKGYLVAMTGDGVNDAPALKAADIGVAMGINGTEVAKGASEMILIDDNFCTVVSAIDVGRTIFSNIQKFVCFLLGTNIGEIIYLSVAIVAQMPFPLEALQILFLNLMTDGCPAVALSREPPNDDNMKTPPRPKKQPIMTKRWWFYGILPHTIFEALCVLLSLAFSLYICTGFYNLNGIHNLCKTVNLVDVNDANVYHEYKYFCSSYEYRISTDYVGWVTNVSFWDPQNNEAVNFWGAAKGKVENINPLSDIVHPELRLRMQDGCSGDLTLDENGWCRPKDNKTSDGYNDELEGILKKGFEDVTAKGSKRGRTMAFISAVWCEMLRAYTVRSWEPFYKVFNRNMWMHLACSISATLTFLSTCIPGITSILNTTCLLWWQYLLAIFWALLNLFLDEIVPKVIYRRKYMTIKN
In words: Membrane ATPase assay, ATP4-associated (Na+-dependent) ATPase activity. Type of assay: biochemical. The following applies: cell-free assays, against both PfATP4WT and TgATP4WT. How it is done:
as §1

With `C[C@H]1Cc2c([nH]c3cc(Cl)c(F)cc23)[C@@]2(N1)C(=O)Nc1ccc(Cl)cc12` [Cipargamin], the “fold less sensitive to inhibition than PfATP4WT-associated ATPase activity” value in assay [1] is on record as “about 3 fold”.

Regarding `N#Cc1cc(NC(=O)[C@H]2c3ccccc3C(=O)N(CC(F)(F)F)[C@@H]2c2cccnc2)ccc1F` [(+)-SJ733], in the assay with NF54^CTL parasites, the IC90 was found to be 159 nM. For the same compound, the “fold less sensitive to inhibition than PfATP4WT-associated ATPase activity” value in assay [1] was “about 3 fold”. Further, in assay [2], the “fold less potent than cipargamin” value is listed as ~ 2 fold.

The IC90 is the concentration needed for an effect of 90%.
